Here are results for one compound from PMC6747318, “Mutual Enhancement of Opioid and Adrenergic Receptors by Combinations of Opioids and Adrenergic Ligands Is Reflected in Molecular Complementarity of Ligands: Drug Development Possibilities” (International Journal of Molecular Sciences, 2019).

Protein sequences, listed by entry. Tags and fused reporters are not part of them. Lines headed by an entry give the natural chain unless they say otherwise; changes in a name come on top.
UniProt P21728: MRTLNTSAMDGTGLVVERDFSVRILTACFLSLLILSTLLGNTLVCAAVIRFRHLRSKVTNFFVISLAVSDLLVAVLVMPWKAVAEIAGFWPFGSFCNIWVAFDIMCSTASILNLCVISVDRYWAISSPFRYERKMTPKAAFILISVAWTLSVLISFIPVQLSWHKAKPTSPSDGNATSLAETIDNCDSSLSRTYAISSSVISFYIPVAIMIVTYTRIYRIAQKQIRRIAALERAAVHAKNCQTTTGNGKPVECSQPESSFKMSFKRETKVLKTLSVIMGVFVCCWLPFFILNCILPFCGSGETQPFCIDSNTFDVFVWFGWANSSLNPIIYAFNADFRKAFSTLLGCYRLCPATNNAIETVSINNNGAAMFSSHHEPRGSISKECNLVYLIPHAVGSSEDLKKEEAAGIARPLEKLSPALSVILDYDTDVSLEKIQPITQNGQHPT

In assay [1] the target is T1, dopamine D1 receptor (D1DR) 89–98 (Homo sapiens, UniProt P21728).
T1 construct: D1DR 89–98
In words: UV spectroscopy binding to receptor peptide D1DR 89–98.

Assay [2] deals with T2, dopamine D1 receptor (D1DR) 170–188 (Homo sapiens, UniProt P21728).
T2 construct: D1DR 170–188
The assay is described as follows: UV spectroscopy binding to receptor peptide D1DR 170–188.

The term Kd denotes the free concentration of one partner at which half of the binding sites on the other are occupied at equilibrium, for simple one-to-one binding. A lower Kd goes with higher affinity. `CC(N)Cc1ccccc1` (centres unmarked) [Amphetamine]: the figures for the Kd in assay [1] and in assay [2] were 530 µM and 230 µM, respectively.
